## Yeast mating assay B: variants of the scFv Ab-14

Data: MIT Lincoln Laboratory AlphaSeq set, Li et al. 2023, doi:10.1038/s41467-023-39022-2, as distributed in FLAb.

Target peptide (SARS-CoV-2 spike, HR2 region): PDVDLGDISGINAS

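These sequences belong to a second round, designed from the earlier measurements on random variants of the parent. Their group label is 14H_GP_HC (GP: Gaussian process model; HC: hill climbing; a sequence that several methods proposed may carry one label only). AlphaSeq pools MATa yeast showing the antibodies with MATalpha yeast showing the peptide. After mating in shaken culture at 30 °C for 16 h, diploids were selected and their barcode pairs sequenced. The ratio of observed to expected reads was calibrated, replicate by replicate, on BCL2-family standards whose Kd was known from biolayer interferometry. The assay was run in six technical replicates.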

Parent: Ab-14, a human scFv built as VH, a (GGGGS)3 linker, VL. Only the CDRs of the heavy chain vary.
VH: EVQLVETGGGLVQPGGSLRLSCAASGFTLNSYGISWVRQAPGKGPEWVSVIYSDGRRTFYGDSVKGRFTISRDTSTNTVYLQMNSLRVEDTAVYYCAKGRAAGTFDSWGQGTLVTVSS
VL: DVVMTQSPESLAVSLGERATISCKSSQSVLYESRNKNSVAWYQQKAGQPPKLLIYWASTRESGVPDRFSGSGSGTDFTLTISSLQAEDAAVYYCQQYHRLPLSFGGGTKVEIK

Each variant is given by its three heavy chain CDRs, as the data file delimits them; those of the parent are GFTLNSYGIS, VIYSDGRRTFYGDSVK, GRAAGTFDS. Affinities are written as log10 Kd with Kd in nM; a lower number is a better binder. Replicates are averaged; those with no signal do not enter the mean. A pair that was not seen in that replicate is written "nd"; this usually means weak binding, but a binder can also be missed.

| # | CDR-H1 | CDR-H2 | CDR-H3 | log10 Kd, replicates | mean, log10 nM | signal with controls |
|---|---|---|---|---|---|---|
| 1 | GFKLNSYGIS | VIYSDGRRTFYDDSVK | GKTAGTFDS | nd / nd / 1.46 / nd / nd / 0.87 | 1.17 | 0 of 18 |
| 2 | GFTLNNYGIS | VIYSDGTRTFYSDSVK | GRAAGTFDS | nd / nd / nd / nd / nd / nd | nd | 0 of 18 |
| 3 | GFTLNDYGIS | VIYSDGTRTFYSDSVK | GRAAGTFDS | 1.71 / 0.98 / 0.98 / 1.99 / 1.59 / 0.61 | 1.31 | 0 of 18 |
| 4 | GFTLNSYGIS | VIYSDGRRTFYSDSVK | GQDAGTFDS | 0.59 / 1.40 / nd / 0.90 / 1.83 / 1.42 | 1.23 | 0 of 18 |
| 5 | GFSLNEYGIS | VIYSDGRRTFYTDSVK | GFAAGTFDL | 0.43 / 0.37 / 0.04 / nd / 0.07 / -0.14 | 0.15 | 0 of 18 |
| 6 | GFTLNDYGIS | VIYSDGRRTFYADSVK | GRTAGTFMS | nd / 1.94 / 1.74 / 1.60 / 1.38 / 3.23 | 1.98 | 0 of 18 |
| 7 | GFTLDSYGIS | VIYSDGKRTFYGDSVK | GRAAGTFDQ | 1.51 / 1.17 / 1.56 / 1.64 / 1.35 / 2.19 | 1.57 | 0 of 18 |
| 8 | GFTLNSYGIS | VIYADGRRTFYGDSVK | GRAAGTFYS | nd / nd / nd / nd / nd / nd | nd | 0 of 18 |
| 9 | GFTLDSYGIS | VIYSDGRRTFYIDSVK | GRAAGTFMS | nd / nd / nd / nd / nd / 2.19 | 2.19 | 0 of 18 |
| 10 | GFTLNSYGIS | VIYSDGRRTFYVDDVK | GEAAGTFKS | 2.22 / nd / 2.29 / nd / 3.72 / 2.01 | 2.56 | 0 of 18 |
| 11 | GFVLNSYGIS | VIYADGRRTFYGDSVK | GTAAGTFDS | 0.54 / -0.27 / -0.51 / 0.23 / 0.11 / 0.55 | 0.11 | 0 of 18 |
| 12 | GFTLDSYGIS | VIYSDGRRTFYDDSVK | GQEAGTFDS | nd / nd / nd / nd / nd / nd | nd | 0 of 18 |
| 13 | GFTLNEYGIS | VIYSDGRRTFYSDAVK | GRQAGTFDS | 0.00 / -0.23 / -0.02 / -0.22 / -0.28 / -0.18 | -0.15 | 0 of 18 |
| 14 | GFELNEYGIS | VIYADGRRTFYGDSVK | GGAAGTFDG | -0.31 / -0.39 / 0.08 / 0.11 / 0.30 / 0.45 | 0.04 | 0 of 18 |
| 15 | GFVLNEYGIS | VIYSDGRRTFYIDSVK | GRAAGTFDS | 1.81 / 1.60 / 1.16 / 2.07 / 1.36 / 1.29 | 1.55 | 0 of 18 |
| 16 | GFTLDSYGIS | VIYSDGRRTFYIDSVK | GRAAGTFIS | nd / nd / nd / nd / nd / nd | nd | 1 of 18 (1.03) |
| 17 | GFTLNSYGIS | VIYSDGVRTFYSDSVK | GREAGTFNS | 1.09 / 0.38 / nd / 0.62 / 0.64 / 1.02 | 0.75 | 0 of 18 |
| 18 | GFTLNQYGIS | VIYADGRRTFYGDSVK | GKAAGTFDS | 0.34 / 0.90 / 0.38 / -0.03 / -0.07 / 0.80 | 0.38 | 0 of 18 |
| 19 | GFELNSYGIS | VIYADGRRTFYGDQVK | GRAAGTFKS | nd / nd / nd / nd / nd / nd | nd | 0 of 18 |
| 20 | GFFLNEYGIS | VIYSDGRRTFYGDSVK | GRAAVTFDK | nd / nd / nd / nd / nd / nd | nd | 1 of 18 (-0.58) |
| 21 | GFTLNEYGIS | VIYSDGRRTFYGDSVK | GRAAGTFMN | nd / nd / nd / nd / nd / nd | nd | 0 of 18 |
| 22 | GFTLESYGIS | VIYADGRRTFYGDSVK | GRAAGTFWS | nd / nd / nd / nd / nd / nd | nd | 0 of 18 |
| 23 | GFSLNEYGIS | VIYSDGRRTFYCDSVK | GWAAGTFDR | nd / nd / nd / nd / nd / nd | nd | 0 of 18 |
| 24 | GFRLNSYGIS | VIYSDGRRTFYDDDVK | GQTAGTFDS | nd / nd / nd / nd / nd / nd | nd | 0 of 18 |
| 25 | GFKLNSYGIS | VIYSDGRRTFYDDSVK | GLLAGTFDS | nd / nd / -0.32 / nd / 0.76 / 0.62 | 0.35 | 0 of 18 |
| 26 | GFTLNSYGIS | VIYSDGRRTFYSDSVK | GKAAGTFDP | 1.20 / 1.56 / 1.99 / 0.43 / 0.79 / 0.92 | 1.15 | 0 of 18 |
| 27 | GFTLNEYGIS | VIYSDGRRTFYGDSVK | GRAAGTFCT | nd / nd / nd / nd / nd / nd | nd | 0 of 18 |
| 28 | GFTLDSYGIS | VIYSDGRRTFYHDSVK | GRLAGTFDS | 0.79 / 0.54 / 1.00 / 0.65 / 0.61 / 0.50 | 0.68 | 0 of 18 |
| 29 | GFTLNQYGIS | VIYSDGRRTFYSDSVK | GRQAGTFDT | 0.27 / 0.79 / -0.03 / -0.33 / 0.05 / 0.09 | 0.14 | 0 of 18 |
| 30 | GFDLNSYGIS | VIYSDGRRTFYQDSVK | GRAAVTFDV | nd / nd / nd / nd / nd / nd | nd | 0 of 18 |
| 31 | GFSLNMYGIS | VIYSDGRRTSYIDSVK | GRAAGTFDS | 0.65 / 0.64 / 0.25 / 0.60 / 0.38 / 0.48 | 0.50 | 2 of 18 (3.08) |
| 32 | GFQLNSYGIS | VIYSDGRRTFYGDSVK | GKAAGTFDS | 1.84 / nd / 1.58 / 2.22 / nd / 1.95 | 1.90 | 0 of 18 |
| 33 | GFDLNQYGIS | VIYSDGKRTFYSDSVK | GRAAGTFDS | -0.31 / -0.31 / -0.86 / -0.34 / -0.38 / 0.14 | -0.34 | 0 of 18 |
| 34 | GFSLNMYGIS | VIYSDGRRTQYDDSVK | GRAAGTFDS | nd / nd / nd / nd / 0.39 / nd | 0.39 | 0 of 18 |
| 35 | GFTLNSYGIS | VIYADGRRTFYGDSVK | GWAAGTFKM | nd / nd / nd / nd / nd / nd | nd | 0 of 18 |
| 36 | PFTLNSYGIS | VIYADGRRTFYGDSVK | GRAAGTFDS | 1.13 / 1.48 / 0.73 / 0.54 / 0.80 / 1.61 | 1.05 | 0 of 18 |
| 37 | HFTLESYGIS | VIYADGRRTFYGDSVK | GRAAGTFKS | nd / nd / nd / nd / nd / nd | nd | 0 of 18 |
| 38 | GFTLNSYGIS | VIYSDGRRTFYGDSVK | GLLAGTFDS | 0.90 / 1.64 / 0.94 / 1.33 / 1.19 / 0.81 | 1.14 | 0 of 18 |

Extract of 6 entries:

{"CDR-H1": "GFQLNSYGIS", "CDR-H2": "VIYSDGRRTFYGDSVK", "CDR-H3": "GKAAGTFDS", "log10 Kd, replicates": "1.84 / nd / 1.58 / 2.22 / nd / 1.95", "mean, log10 nM": "1.90", "signal with controls": "0 of 18"}
{"CDR-H1": "GFTLNEYGIS", "CDR-H2": "VIYSDGRRTFYGDSVK", "CDR-H3": "GRAAGTFCT", "log10 Kd, replicates": "nd / nd / nd / nd / nd / nd", "mean, log10 nM": "nd", "signal with controls": "0 of 18"}
{"CDR-H1": "GFTLNDYGIS", "CDR-H2": "VIYSDGTRTFYSDSVK", "CDR-H3": "GRAAGTFDS", "log10 Kd, replicates": "1.71 / 0.98 / 0.98 / 1.99 / 1.59 / 0.61", "mean, log10 nM": "1.31", "signal with controls": "0 of 18"}
{"CDR-H1": "GFTLNSYGIS", "CDR-H2": "VIYSDGRRTFYSDSVK", "CDR-H3": "GKAAGTFDP", "log10 Kd, replicates": "1.20 / 1.56 / 1.99 / 0.43 / 0.79 / 0.92", "mean, log10 nM": "1.15", "signal with controls": "0 of 18"}
{"CDR-H1": "GFKLNSYGIS", "CDR-H2": "VIYSDGRRTFYDDSVK", "CDR-H3": "GKTAGTFDS", "log10 Kd, replicates": "nd / nd / 1.46 / nd / nd / 0.87", "mean, log10 nM": "1.17", "signal with controls": "0 of 18"}
{"CDR-H1": "GFTLNSYGIS", "CDR-H2": "VIYADGRRTFYGDSVK", "CDR-H3": "GWAAGTFKM", "log10 Kd, replicates": "nd / nd / nd / nd / nd / nd", "mean, log10 nM": "nd", "signal with controls": "0 of 18"}

The authors' rule: three or more of the six replicates give a measured affinity, fewer mean a poor binder. A sequence measured in both rounds can read differently, since the two assays cover different ranges. Of ten entries with the parent sequence, four were seen in most replicates (averages 0.34 to 2.37), three in one and three in none, so single entries are noisy. Three control strains display no target. For all heavy chain designs, 1% of the pairings with them gave a signal, with a median of 2.08 and one signal in twenty below 0.84, so weak values seen in few replicates may be background. For each scFv, signals with the empty controls are counted beside the result, with their mean in brackets.